Like-named read-outs stand apart in the source and are kept apart here.
Target: phosphorylated active hERK2 enzyme (Homo sapiens (Human), UniProt P28482)
Test: Active Human ERK2 (hERK2) Activity Assay (IMAP-FP)
Format: biochemical
Settings: 10 point titration, read-out: AERK2 IC50
Method: Assays Active Human ERK2 (hERK2) Activity Assay:
Activated ERK2 activity was determined in an IMAP-FP assay (Molecular Devices). […] The final reaction in each well of 25 μL consists of 0.5 nM hERK2, 900 nM unlabeled peptide, 80 nM labeled-peptide, and 30 μM ATP. Phosphorylation reactions were allowed to proceed for 60 minutes and were immediately quenched by the addition of 60 μL IMAP detection beads (1:1000 dilutions) in IMAP binding buffer (Molecular Devices) with 24 mM NaCl. Plates were read on EnVision reader after 60 minutes binding equilibration using Fluorescence Polarization protocol (Perkin Elmer).

Amino acid sequences for entries named in this document (tags omitted).
UniProt P28482, whole entry: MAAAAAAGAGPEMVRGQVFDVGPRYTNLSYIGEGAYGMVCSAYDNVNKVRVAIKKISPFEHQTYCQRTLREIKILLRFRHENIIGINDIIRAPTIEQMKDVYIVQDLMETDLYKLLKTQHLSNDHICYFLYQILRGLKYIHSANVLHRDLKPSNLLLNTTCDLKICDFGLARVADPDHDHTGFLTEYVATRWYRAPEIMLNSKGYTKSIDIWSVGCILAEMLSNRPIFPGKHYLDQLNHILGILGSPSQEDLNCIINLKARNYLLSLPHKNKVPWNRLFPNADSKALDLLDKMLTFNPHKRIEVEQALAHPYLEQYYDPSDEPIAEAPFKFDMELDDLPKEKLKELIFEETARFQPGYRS

[1] = Table 6, 0.5 nM hERK2, 30 μM ATP
[2] = Table 5, 0.5 nM hERK2, 30 μM ATP

Row | SMILES | IC50 [1] [nM] | IC50 [2] [nM]
1 | C[C@@H](O)[C@@H](NC(=O)Nc1cc2[nH]nc(N3CCOCC3)c2cn1)c1ccccc1 [Example 96, 1-[(1S,2R)-2-hydroxy-1-phenylpropyl]-3-(3-morpholin-4-yl-1H-pyrazolo[4,3-c]-pyridin-6-yl)urea] | 0.3 | 
2 | CC(O)[C@@H](NC(=O)Nc1cc2[nH]nc(N3CCOCC3)c2cn1)c1ccccc1 (stereo partly drawn) [Example 455, 1-[(1S)-2-hydroxy-1-phenylpropyl]-3-(3-morpholin-4-yl-1H-pyrazolo[4,3-c]pyridin-6-yl)urea] | 0.3 | 
3 | COC[C@@H](NC(=O)Nc1cc2[nH]nc(N3CCO[C@H](C)C3)c2cn1)c1ccccc1 [Example 39, 1-[(1S)-2-Methoxy-1-phenylethyl]-3-{3-[(2R)-2-methylmorpholin-4-yl]-1H-pyrazolo[4,3-c]pyridin-6-yl}urea] |  | 1.45
4 | COC[C@@H](NC(=O)Nc1cc2[nH]nc(N3CCO[C@@H](C)C3)c2cn1)c1ccccc1 [Example 40, 1-[(1S)-2-methoxy-1-phenylethyl]-3-{3-[(2S)-2-methylmorpholin-4-yl]-1H-pyrazolo[4,3-c]pyridin-6-yl}urea] |  | 0.63

— patent US9233979B2, “Compounds that are ERK inhibitors” (Merck Sharp & Dohme Corp., priority 2012, dated 2016)
